Reference: paper PMC10629583, “Specific inhibition of an anticancer target, polo-like kinase 1, by allosterically dismantling its mechanism of substrate recognition” (Proceedings of the National Academy of Sciences of the …, 2023)
Substitutions are numbered along the chain they refer to. Names and notes keep the numbering of the source. [ ]: non-standard residue; d: D form. The star is where a group is joined. FITC = O=C1OC2(c3ccc(O)cc3Oc3cc(O)ccc32)c2ccc(NC(=S)*)cc21; pT = C[C@@H](OP(=O)(O)O)[C@H](N)C(=O)O; Ahx = NCCCCCC(=O)O

Target: T1, FITC-Ahx-DPPLHSpTAI-NH2 (SMILES …)
T1 construct: also called FITC-conjugated phosphopeptide; FITC-conjugated ligand
T1 peptide: {FITC-Ahx}-DPPLHS[pT]AI-NH2
Assay: fluorescence polarisation; direct binding: FITC-Ahx-DPPLHSpTAI-NH2 with different concentrations of recombinant PBD1 WT or mutants
Details: both partners purified

B1: PBD1 (residues 345–603) F559D (domain or fragment, human, UniProt P53350 345-603, looked up)
chain: KGLENPLPERPREKEEPVVRETGEVVDCHLSDMLQQLHSVNASKPSERGLVRQEEAEDPACIPIFWVSKWVDYSDKYGLGYQLCDNSVGVLFNDSTRLILYNDGDSLQYIERDGTESYLTVSSHPNSLMKKITLLKYFRNYMSEHLLKAGANITPREGDELARLPYLRTWFRTRSAIILHLSNGSVQINFFQDHTKLILCPLMAAVTYIDEKRDDRTYRLSLLEEYGCCKELASRLRYARTMVDKLLSSRSASNRLKAS
notes: Polo-like kinase 1 (Plk1), polo-box domain, residues 345-603, F559D; also called F559D mutant protein; source: E. coli (purified as described for the crystallography construct, Rosetta strain)
Q: With B1 as the binder, how does the “fold decrease of affinity against WT” value read?
A: 1.7 fold

B2: PBD1 (residues 345–603) F559E (domain or fragment, human, UniProt P53350 345-603, looked up)
chain: B1 chain with D215E
notes: Polo-like kinase 1 (Plk1), polo-box domain, residues 345-603, F559E; also called F559E mutant; source: E. coli (purified as described for the crystallography construct, Rosetta strain)
Q: With B2 as the binder, how does the “fold decrease of affinity against WT” value read?
A: ~7 fold

B3: PBD1 (residues 345–603) F559K (domain or fragment, human, UniProt P53350 345-603, looked up)
chain: B1 chain with D215K
notes: Polo-like kinase 1 (Plk1), polo-box domain, residues 345-603, F559K; also called F559K mutant; source: E. coli (purified as described for the crystallography construct, Rosetta strain)
Q: B3 was tested. Which “fold decrease of affinity against WT” value did it give?
A: > 27 fold

B4: PBD1 (residues 345–603) F559R (domain or fragment, human, UniProt P53350 345-603, looked up)
chain: B1 chain with D215R
notes: Polo-like kinase 1 (Plk1), polo-box domain, residues 345-603, F559R; also called F559R mutant; source: E. coli (purified as described for the crystallography construct, Rosetta strain)
Q: With B4 as the binder, how does the “fold decrease of affinity against WT” value read?
A: > 42 fold
